{"source": "paper PMC8691691", "about": "(ACS Chemical Neuroscience, 2021)", "biological_target": "T1, GlyT2 A210C mutant (Rattus norvegicus, UniProt P58295, A210C)", "T1 construct": "expressed in transfected cells; host or cells: COS7", "T1 sequence (P58295 1-799 A210C)": "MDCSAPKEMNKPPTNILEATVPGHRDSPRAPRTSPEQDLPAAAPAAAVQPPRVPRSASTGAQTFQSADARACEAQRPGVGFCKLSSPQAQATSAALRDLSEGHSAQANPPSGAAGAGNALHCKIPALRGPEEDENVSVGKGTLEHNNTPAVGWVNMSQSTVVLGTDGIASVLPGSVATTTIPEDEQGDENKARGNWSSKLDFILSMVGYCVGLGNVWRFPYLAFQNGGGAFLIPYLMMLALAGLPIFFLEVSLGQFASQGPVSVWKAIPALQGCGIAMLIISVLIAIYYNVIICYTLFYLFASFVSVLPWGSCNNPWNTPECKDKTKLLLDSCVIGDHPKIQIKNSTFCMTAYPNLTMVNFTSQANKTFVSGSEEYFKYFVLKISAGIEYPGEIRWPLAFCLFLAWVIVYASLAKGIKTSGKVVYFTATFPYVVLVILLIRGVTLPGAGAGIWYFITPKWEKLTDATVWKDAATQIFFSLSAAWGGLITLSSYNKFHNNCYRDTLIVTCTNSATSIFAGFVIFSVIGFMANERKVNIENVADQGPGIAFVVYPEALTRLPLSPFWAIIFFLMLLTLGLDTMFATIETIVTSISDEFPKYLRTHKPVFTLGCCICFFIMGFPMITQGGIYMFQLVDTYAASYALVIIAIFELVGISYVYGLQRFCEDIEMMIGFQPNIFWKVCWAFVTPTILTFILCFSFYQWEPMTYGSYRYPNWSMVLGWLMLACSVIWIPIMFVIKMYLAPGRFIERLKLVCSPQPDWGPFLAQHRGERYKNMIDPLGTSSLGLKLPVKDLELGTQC", "test": "[3H]glycine transport by GlyT2 mutant in COS7 cells", "format": "cell-based", "data": [{"smiles": "NCC(=O)O", "note": "[Gly, glycine]", "values": [{"measurement": "EC50", "result": "336 ± 10", "unit": "µM"}]}]}
